Test results as given in patent publication US9370523B2, “Method for diagnosing or prediagnosing a beta-amyloidopathy or an alpha-synucleopathy” (Immungenetics AG, priority 2010, dated 2016).

Amino acid sequences for entries named in this document (tags omitted). A change or cut given only in a name is not applied to a line headed by its entry.
UniProt O35379: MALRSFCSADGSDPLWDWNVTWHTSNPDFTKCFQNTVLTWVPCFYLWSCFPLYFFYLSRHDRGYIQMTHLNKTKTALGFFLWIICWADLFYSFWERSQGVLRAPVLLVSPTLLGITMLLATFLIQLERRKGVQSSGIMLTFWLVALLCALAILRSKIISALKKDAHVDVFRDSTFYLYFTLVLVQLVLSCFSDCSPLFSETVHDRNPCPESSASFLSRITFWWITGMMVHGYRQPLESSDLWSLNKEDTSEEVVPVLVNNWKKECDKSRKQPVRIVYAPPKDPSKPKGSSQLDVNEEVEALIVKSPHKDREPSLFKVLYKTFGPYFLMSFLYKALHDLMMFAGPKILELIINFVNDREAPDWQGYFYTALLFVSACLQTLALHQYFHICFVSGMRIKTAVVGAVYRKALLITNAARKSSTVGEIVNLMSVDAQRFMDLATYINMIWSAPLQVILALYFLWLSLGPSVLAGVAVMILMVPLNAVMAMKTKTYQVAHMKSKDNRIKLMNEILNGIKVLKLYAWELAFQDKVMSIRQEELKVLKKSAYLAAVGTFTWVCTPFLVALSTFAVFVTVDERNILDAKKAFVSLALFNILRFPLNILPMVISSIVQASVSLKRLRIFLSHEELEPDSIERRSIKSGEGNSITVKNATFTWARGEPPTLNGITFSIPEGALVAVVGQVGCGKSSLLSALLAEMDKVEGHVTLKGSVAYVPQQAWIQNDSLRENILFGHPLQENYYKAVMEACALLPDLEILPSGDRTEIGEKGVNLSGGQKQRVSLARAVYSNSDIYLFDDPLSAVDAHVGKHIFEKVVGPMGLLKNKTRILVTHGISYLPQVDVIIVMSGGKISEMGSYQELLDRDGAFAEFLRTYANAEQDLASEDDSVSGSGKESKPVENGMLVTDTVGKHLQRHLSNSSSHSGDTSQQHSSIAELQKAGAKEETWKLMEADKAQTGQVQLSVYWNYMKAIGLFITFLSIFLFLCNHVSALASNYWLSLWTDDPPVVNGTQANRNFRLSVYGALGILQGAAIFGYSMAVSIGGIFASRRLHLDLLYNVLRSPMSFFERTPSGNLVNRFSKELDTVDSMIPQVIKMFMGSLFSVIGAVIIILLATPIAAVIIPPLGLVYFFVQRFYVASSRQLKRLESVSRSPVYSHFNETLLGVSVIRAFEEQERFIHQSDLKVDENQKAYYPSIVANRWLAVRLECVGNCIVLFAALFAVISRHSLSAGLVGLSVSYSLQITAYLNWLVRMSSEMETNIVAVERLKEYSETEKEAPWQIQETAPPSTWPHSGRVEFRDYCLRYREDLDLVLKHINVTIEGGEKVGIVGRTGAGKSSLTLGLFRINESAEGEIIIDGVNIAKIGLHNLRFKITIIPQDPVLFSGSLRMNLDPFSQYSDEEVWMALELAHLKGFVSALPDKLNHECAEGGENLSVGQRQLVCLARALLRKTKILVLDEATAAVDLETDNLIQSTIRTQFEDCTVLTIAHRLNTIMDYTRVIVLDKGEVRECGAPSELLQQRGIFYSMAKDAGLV

Molecular target: T1, ABCC1 transporter (Mus musculus, UniProt O35379)
T1 construct: from tissue; host or cells: living APP-transgenic mice (FVB background); ABCC1 is expressed mainly in the plexus choroideus of the brain
Test: Treatment of mice with amyloid deposits for 30 days, ELISA measurement of brain Aβ
Type: in vivo
Experimental: Mice with amyloid deposits were treated for 30 days with the anti-emeticthiethylperazine(Torecan®,2-(ethylthio)-10-[3-(4-methylpiperazin-1-yl)propyl]-10H-phenothiazine). 3 mg/kg body weight was administered intramuscularly twice daily. […] The results are reproduced graphically in FIGS. 3a-3e.
APP-transgenic mice (APP, APPdt) were obtained from The Jackson Laboratory (Bar Harbor, USA) and the University of Tübingen (Tübingen, Germany). The NEP-deficient mice were obtained from the Riken Brain Research Institute (Saitama, Japan). ABCG2-, ABCB1-, and ABCC1-deficient mice were obtained from Taconic-Farms (Denmark). All transgenic and knockout mouse lines were hybridised for at least 9 generations in the geneticFVB-background. The mice were held in a 12 h/12 h light/dark cycle at 23° C. with free access to food and water.
For the tissue preparation the mice were killed by cervical dislocation and perfused transcardially with PBS (phosphate-buffered, physiological saline solution). The brain was removed and one hemisphere was stored in buffered 4% paraformaldehydefor paraffin embedding andimmunohistochemistry. The other hemisphere was shock-frozen in liquid nitrogen and stored at −80° C. for biochemical analyses.
ELISA kits (TH40HS, TK42HS) from The Genetics Company (TGC, Schlieren, Switzerland) were used for the quantification of Aβ. Brain hemispheres were homogenised using PreCellys24 (12 s, 6,500 rpm). After addingcarbonate buffer (pH 8.0) the homogenisates were mixed using PreCellys (5 s, 5,000 rpm) and centrifuged for 90 min at 4° C. and 24,000 g, in order to separate insoluble from soluble Aβ species. […] Protein contents of all the samples were measured three times, using a Nanodrop1000 spectrophotometer (ThermoFisher Scientific, Wilmington, USA). […]
TheLillieforsgoodness-of-fit test (alpha=0.05) was applied to the ELISA data and to the log-transformed ELISA data to distinguish between the assumption of normally distributed sample data and the assumption of log-normally distributed sample data. […] Mean confidence intervals were calculated assuming a basic log-normal distribution. […]

Compound: CCSc1ccc2c(c1)N(CCCN1CCN(C)CC1)c1ccccc1S2 [thiethylperazine, 2-(ethylthio)-10-[3-(4-methylpiperazin-1-yl)propyl]-10H-phenothiazine]
- effect on Aβ values (FIGS. 3a-3e), in words (activation of ABCC1 by administration of Torecan): reduces the Aβ values
- Aβ values in mice (FIG. 3e) (change of Aβ values on activation of ABCC1, n=4, *p<0.05): −28%
- reduction in the quantity of Aβ compared to vehicle-treated animals (mice with amyloid deposits, 3 mg/kg body weight intramuscularly twice daily for 30 days, ELISA, vehicle = water): at least 31%
